Measurements: patent US4777182A, “6-Amidino-2-naphthyl 4-guanidinobenzoate derivatives and pharmaceutical composition containing them” (Torii & Co., Ltd., priority 1984, dated 1988)
pIC50: −log10 of the molar value.

Target: Thrombin (Homo sapiens, UniProt P00734)
Details: read-out: ID50, Thrombin; TAME hydrolysis

Question: How did the pIC50 turn out when `N=C(N)c1ccc2cc(OC(=O)c3ccc(NC4=NCCN4)cc3)ccc2c1` [Compound No. 2, 6-amidino-2-naphthyl 4-(2-imidazolinyl)amino-benzoate] was run?
Answer: The pIC50 was 5.52.
